The source of these data is patent US7517894B2, “VEGFR-2 and VEGFR-3 inhibitory anthranilamide pyridines” (Bayer Schering Pharma AG, priority 2003, dated 2009).

The chains behind the UniProt entries cited, without tags or fusion partners. Residues count along the entry.
UniProt P35968, 20-1356 limits assumed: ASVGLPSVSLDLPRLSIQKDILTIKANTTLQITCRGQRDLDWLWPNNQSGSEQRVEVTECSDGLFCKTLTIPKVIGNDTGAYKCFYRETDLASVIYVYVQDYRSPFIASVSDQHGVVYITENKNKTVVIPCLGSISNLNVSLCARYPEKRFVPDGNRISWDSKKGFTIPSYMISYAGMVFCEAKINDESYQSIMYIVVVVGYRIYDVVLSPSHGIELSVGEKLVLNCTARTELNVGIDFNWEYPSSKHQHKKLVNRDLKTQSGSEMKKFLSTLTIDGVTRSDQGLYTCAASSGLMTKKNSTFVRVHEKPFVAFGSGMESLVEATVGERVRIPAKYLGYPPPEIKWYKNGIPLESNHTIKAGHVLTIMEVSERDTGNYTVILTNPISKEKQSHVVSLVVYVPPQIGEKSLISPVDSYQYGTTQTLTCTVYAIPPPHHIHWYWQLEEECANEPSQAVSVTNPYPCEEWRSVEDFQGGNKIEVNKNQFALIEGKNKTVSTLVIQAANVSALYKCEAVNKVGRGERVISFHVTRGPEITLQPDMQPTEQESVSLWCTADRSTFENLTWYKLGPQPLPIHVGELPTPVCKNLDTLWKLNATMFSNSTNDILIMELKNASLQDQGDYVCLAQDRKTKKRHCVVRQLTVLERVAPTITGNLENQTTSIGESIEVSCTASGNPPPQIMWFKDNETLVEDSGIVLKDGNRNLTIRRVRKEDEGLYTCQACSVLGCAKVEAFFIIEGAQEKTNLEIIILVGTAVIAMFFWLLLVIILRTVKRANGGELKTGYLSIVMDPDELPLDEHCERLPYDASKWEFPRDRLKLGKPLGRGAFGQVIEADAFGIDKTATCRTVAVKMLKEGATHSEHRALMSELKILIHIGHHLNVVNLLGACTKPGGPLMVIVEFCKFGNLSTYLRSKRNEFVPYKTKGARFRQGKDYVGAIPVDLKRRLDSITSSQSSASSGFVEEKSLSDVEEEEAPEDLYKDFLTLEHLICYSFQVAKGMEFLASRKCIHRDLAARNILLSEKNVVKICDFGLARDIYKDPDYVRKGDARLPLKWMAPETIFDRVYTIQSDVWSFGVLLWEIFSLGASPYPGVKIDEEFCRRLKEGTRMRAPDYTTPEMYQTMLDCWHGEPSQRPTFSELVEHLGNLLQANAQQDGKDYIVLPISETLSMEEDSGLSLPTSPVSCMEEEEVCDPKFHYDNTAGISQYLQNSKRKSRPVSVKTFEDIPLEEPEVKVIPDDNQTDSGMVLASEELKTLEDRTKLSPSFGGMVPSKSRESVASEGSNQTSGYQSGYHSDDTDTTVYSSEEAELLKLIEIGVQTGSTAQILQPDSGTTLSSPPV
UniProt P08684, whole entry: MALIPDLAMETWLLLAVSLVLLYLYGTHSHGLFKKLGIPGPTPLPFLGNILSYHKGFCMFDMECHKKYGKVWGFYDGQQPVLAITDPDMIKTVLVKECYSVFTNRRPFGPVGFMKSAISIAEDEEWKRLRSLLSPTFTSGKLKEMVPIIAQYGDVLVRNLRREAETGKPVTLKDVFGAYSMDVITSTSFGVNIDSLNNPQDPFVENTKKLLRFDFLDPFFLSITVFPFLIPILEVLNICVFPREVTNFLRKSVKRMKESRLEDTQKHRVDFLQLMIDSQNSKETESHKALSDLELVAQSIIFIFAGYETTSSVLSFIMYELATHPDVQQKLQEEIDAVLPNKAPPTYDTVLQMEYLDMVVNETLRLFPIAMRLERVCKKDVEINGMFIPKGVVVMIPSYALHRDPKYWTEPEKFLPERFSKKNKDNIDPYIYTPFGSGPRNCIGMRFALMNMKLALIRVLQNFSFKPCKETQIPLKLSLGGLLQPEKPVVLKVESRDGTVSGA

Some results are limits rather than exact numbers.

The target of one data set is VEGFR II (KDR) (Homo sapiens, UniProt P35968). The experiment in a line: Inhibition of the KDR kinase activity (33P-ATP, poly-(Glu4Tyr) phosphocellulose filter assay). As to conditions: read-out: VEGFR II (KDR) kinase inhibition IC50; 10 minutes at room temperature; phosphate incorporation into poly-(Glu4Tyr). On the procedure:
• Stock solution A: 3 mmol of ATP in water, pH 7.0 (−70° C.) • Stock solution B: g-33P-ATP 1 mCi/100 μl • Stock solution C: poly-(Glu4Tyr) 10 mg/ml in water Solution for Dilutions • Substrate solvent: 10 mmol of DTT, 10 mmol of manganese chloride, 100 mmol of magnesium chloride • Enzyme solution: 120 mmol of tris/HCl, pH 7.5, 10 μM of sodium vanadium oxide Sample Application 1
In a microtiter plate (without protein binding) that tapers to a point, 10 μl of substrate mix (10 μl of volume of ATP stock solution A+25 μCi of g-33P-ATP (about 2.5 μl of stock solution B)+30 μl of poly-(Glu4Tyr) stock solution C+1.21 ml of substrate solvent), 10 μl of inhibitor solution (substances corresponding to the dilutions, 3% DMSO in substrate solvent as a control) and 10 μl of enzyme solution (11.25 μg of enzyme stock solution (KDR or FLT-1 kinase) are added at 4° C. in 1.25 ml of enzyme solution (dilute). It is thoroughly mixed and incubated for 10 minutes at room temperature. Then, 10 μl of stop solution (250 mmol of EDTA, pH 7.0) is added, mixed, and 10 μl of the solution is transferred to a P 81 phosphocellulose filter. Then, it is washed several times in 0.1 M phosphoric acid. The filter paper is dried, coated with Meltilex and measured in a microbeta counter.
The IC50 values are determined from the inhibitor concentration, which is necessary to inhibit the phosphate incorporation to 50% of the uninhibited incorporation after removal of the blank reading (EDTA-stopped reaction).

The target in data set [1] is human cytochrome P 450 isoenzyme (3A4) (Homo sapiens, UniProt P08684). The experiment in a line: Cytochrome P450 inhibition (Crespi et al.). As to conditions: read-out: Cytochrome P450 Isoenzyme 3A4 inhibition; baculovirus/insect cell-expressed human isoenzyme 3A4. As to the method: The cytochrome P450 inhibition was performed according to the publication of Crespi et al. (Anal. Biochem., 248, 188-190 (1997)) with use of baculovirus/insect cell-expressed, human cytochrome P 450 isoenzyme (3A4).

As for `CCOC(=O)Nc1cc(CNc2ccccc2C(=O)Nc2ccc3[nH]ncc3c2)ccn1`, the IC50 on VEGFR II (KDR) stood at 8 nM; in data set [1] it was 10000 nM.

`CC(=O)Nc1cc(CNc2ccccc2C(=O)Nc2cc3ccccc3cn2)ccn1`: the values for the IC50 (at VEGFR II (KDR); in data set [1]) were 41 nM and > 30000 nM, respectively.

`O=C(Nc1cc2ccccc2cn1)c1ccccc1NCc1ccncc1`: on VEGFR II (KDR), the IC50 is 5 nM.
